The list shows a part of the results, in another mix than the full data.

A short description of the experiment: viability loss of caspase-8 NB7 cells with TRAIL – with/without TRAIL, luminescence panel, confirmation (AID 651596). Conditions: NB7 neuroblastoma + caspase-8, without TRAIL, NB7 Caspase-8, mean of runs, at 10 µM.
For the compound `CCCCn1nnnc1C(c1cc2ccccc2o1)N1CCC(n2c(=O)[nH]c3ccccc32)CC1` (stereo unspecified), the activity amounted to 32.4%.
